# Test results from patent US6403602B1 (priority 1997, dated 2002).
# Sequences of proteins named here, by UniProt entry; tags and fusion partners are left off. A change or cut given only in a name is not applied to a line headed by its entry. Residues count along the entry.
# UniProt A0A286XTF2, 1-366: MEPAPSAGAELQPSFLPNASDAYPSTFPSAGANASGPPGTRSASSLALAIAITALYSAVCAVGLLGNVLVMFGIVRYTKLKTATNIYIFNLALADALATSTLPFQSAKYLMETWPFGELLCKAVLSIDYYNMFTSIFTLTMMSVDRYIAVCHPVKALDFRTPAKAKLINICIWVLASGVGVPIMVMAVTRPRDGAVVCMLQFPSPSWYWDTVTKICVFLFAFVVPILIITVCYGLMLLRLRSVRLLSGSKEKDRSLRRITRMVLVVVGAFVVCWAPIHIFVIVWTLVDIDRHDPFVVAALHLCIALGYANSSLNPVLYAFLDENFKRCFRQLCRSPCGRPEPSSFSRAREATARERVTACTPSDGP
# UniProt A0ACM8Q262, 1-400: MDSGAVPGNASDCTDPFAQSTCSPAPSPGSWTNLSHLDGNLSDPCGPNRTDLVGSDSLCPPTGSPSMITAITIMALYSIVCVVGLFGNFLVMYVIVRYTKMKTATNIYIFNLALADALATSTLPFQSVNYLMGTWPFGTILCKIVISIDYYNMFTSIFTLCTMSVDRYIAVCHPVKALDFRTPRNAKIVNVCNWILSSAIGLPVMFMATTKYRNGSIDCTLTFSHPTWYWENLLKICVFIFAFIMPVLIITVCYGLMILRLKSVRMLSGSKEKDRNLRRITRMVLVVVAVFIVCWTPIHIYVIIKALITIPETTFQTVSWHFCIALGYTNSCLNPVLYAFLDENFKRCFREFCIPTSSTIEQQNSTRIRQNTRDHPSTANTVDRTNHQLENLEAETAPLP
# UniProt P41144: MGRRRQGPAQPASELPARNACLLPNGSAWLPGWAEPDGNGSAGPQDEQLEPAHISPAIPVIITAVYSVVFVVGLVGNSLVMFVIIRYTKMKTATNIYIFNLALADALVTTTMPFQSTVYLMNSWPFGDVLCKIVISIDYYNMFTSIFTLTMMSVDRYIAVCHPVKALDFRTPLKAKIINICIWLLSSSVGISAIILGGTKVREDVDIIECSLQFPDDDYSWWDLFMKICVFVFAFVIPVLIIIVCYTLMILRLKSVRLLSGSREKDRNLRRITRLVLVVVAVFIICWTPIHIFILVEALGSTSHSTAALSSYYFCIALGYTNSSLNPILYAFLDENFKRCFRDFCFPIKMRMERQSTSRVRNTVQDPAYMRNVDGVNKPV
# UniProt P32300, whole entry: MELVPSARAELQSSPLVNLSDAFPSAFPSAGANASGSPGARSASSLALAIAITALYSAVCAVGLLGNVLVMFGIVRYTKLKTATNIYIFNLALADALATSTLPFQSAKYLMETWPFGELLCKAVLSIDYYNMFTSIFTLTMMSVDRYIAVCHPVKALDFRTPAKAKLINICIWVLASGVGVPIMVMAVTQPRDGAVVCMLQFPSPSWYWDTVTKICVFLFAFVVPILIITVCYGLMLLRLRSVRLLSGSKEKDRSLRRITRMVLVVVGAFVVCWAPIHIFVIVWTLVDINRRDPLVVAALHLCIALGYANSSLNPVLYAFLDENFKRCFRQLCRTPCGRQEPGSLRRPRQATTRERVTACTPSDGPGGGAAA
# Like-named read-outs stand apart in the source and are kept apart here.
# Assays:
# delta receptors [1] = biological target: T1, delta receptors (Cavia porcellus, UniProt A0A286XTF2); assay type: binding, guinea pig
# T1 construct: The brains were then homogenized in 50 mM Tris HCl, buffer pH 7.7, using a Polytron; from tissue; host or cells: guinea pig brain homogenate (membrane pellet)
# mu opioid receptors = mu opioid receptors (Cavia porcellus, UniProt A0ACM8Q262); conditions: read-out: Ki μ [^3H]DAMGO
# kappa1 sites = biological target: T2, kappa1 sites (Cavia porcellus, UniProt P41144); assay type: binding, guinea pig; conditions: read-out: Ki κ1 [^3H]U69,593
# T2 construct: The brains were then homogenized in 50 mM Tris HCl, buffer pH 7.7, using a Polytron; from tissue; host or cells: guinea pig brain homogenate (membrane pellet)
# delta receptors [2] = biological target: T3, delta receptors (Mus musculus, UniProt P32300); assay type: cell-based
# T3 construct: The vas deferens from Swiss-Webster mice (30-35 g) were prepared as described by Hughes et al; from tissue; host or cells: mouse vas deferens (Swiss-Webster)
# kappa receptors = kappa receptors (Cavia porcellus, UniProt P41144)
# [3] = read-out: Ki δ, experiment done with [^3H]DPDPE
substance,measurement,setting,value
Dynorphin (1-11)-OH,Ki,delta receptors [1]; [3],1.8 nM
same,Ki,mu opioid receptors,2.3 nM
[D-Pen^3.5-enkephalin] [DPDPE-OH],Ki,delta receptors [1]; read-out: Ki δ [^3H]Cl-DPDPE,2.8 nM
same,Ki,mu opioid receptors,> 10000 nM
Dynorphin (1-13)-OH,Ki,delta receptors [1]; read-out: Ki δ [^3H]Cl-DPDPE,16.3 nM
Dynorphin(1-9)-OH,Ki,delta receptors [1]; [3],1 nM
same,Ki,kappa1 sites,1.4 nM
same,Mouse Vas Deferens Ratio (Naltrindole),delta receptors [2],0.082
same,Ki,mu opioid receptors,86.3 nM
same,Guinea Pig Ileum DR with Nor-BNI,kappa receptors,75.48
same,Guinea Pig Ileum Ke of Nor-BNI,kappa receptors,0.29
Dynorphin A (1-17),DR with Naltrindole,delta receptors [2],1.15
same,Ke of Naltrindole,delta receptors [2],7.32
same,Ratio (after Ke of Naltrindole),delta receptors [2],0.003
same,Ratio (after Ke of CTAP),mu receptors,0.121
same,DR with Nor-BNI,kappa receptors,102.20
same,Ke of Nor-BNI,kappa receptors,0.20
same,Ratio (after Ke of Nor-BNI),kappa receptors,0.302
(−) Pentazocine-succinate,Ki,delta receptors [1]; [3],32.7 nM
Dynorphin B,DR with Naltrindole,delta receptors [2],2.10
same,Ke of Naltrindole,delta receptors [2],0.95
same,Ratio (after Ke of Naltrindole),delta receptors [2],0.024
same,Ratio (after Ke of CTAP),mu receptors,0.056
same,DR with Nor-BNI,kappa receptors,75.48
same,Ke of Nor-BNI,kappa receptors,0.28
same,Ratio (after Ke of Nor-BNI),kappa receptors,0.161
(−) Cyclazocine,Ki,delta receptors [1]; [3],0.6 nM
same,Ki,kappa1 sites,0.1 nM
same,Guinea Pig Ileum DR with Nor-BNI,kappa receptors,33.39
same,Guinea Pig Ileum Ke of Nor-BNI,kappa receptors,0.89 ± 0.69
Dynorphin (1-17)-OH,Ki,delta receptors [1]; read-out: Ki δ [^3H]Cl-DPDPE,5.8 nM
Dynorphin B-OH,Ki,delta receptors [1]; [3],4.2 nM
Leu-Enkephalin,Ki,delta receptors [1]; read-out: Ki δ [^3H]Cl-DPDPE,1.6 nM
Dynorphin (1-8),Ki,delta receptors [1]; [3],1.5 nM
same,Ki,kappa1 sites,65 nM
same,Ki,mu opioid receptors,6.8 nM
Met-Enkephalin,Ki,delta receptors [1]; read-out: Ki δ [^3H]Cl-DPDPE,1.1 nM
same,Guinea Pig Ileum DR with Nor-BNI,kappa receptors,6.07
same,Guinea Pig Ileum Ke of Nor-BNI,kappa receptors,3.95
Dynorphin (1-13)-NH2,Ki,delta receptors [1]; [3],7.7 nM
same,Ki,kappa1 sites,0.3 nM
same,Ki,mu opioid receptors,3.5 nM
